Source: patent US20190119377A1

Biological target: CD16 on CD16-transfected NFAT-bla Jurkat cells (UniProt P08637)
Assay: competition flow cytometry; displacement of AF488-labelled human IgG1 (25 nM) from CD16-transfected NFAT-bla Jurkat cells

- Ki: 240 nM
Substance: Recombinant human IgG1 Fc monomer (from UniProt P0DOX5 218-449) (other; other documents disagree on this pair)
